## Apparent affinities of Ab-14 variants for a coronavirus HR2 peptide

The measurements come from Li et al. 2023 (doi:10.1038/s41467-023-39022-2) through the FLAb antibody collection.

Antigen: PDVDLGDISGINAS, a 14-residue peptide of the SARS-CoV-2 spike HR2 region.

Ab-14 is the parent antibody, in scFv form: VH, then the linker GGGGSGGGGSGGGGS, then VL. The heavy chain is unchanged in all variants.
VH: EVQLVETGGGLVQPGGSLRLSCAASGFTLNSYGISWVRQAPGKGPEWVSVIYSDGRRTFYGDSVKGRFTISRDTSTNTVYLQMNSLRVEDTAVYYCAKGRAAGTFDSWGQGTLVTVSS
VL: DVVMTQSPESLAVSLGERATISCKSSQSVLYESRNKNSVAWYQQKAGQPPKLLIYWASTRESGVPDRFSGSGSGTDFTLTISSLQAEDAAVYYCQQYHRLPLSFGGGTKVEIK

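The variants were designed computationally from a first round of random CDR variants and then made and measured. Group labels follow the data file (Ctrl: baseline library sampled from a position-specific scoring matrix, with some repeated check sequences; En: ensemble of fine-tuned language models; GP: Gaussian process model; HC: hill climbing; Gen: genetic algorithm; Gibbs: Gibbs sampling; a sequence that several methods proposed may carry one label only). Affinity was read by AlphaSeq, a pooled yeast mating assay with surface-displayed partners. After mating in shaken culture at 30 °C for 16 h, diploids were selected and their barcode pairs sequenced. Scores were corrected for input abundance and mapped to Kd with protein pairs of known affinity run in the same pool. There are six technical replicates.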

The parent's light chain CDRs are KSSQSVLYESRNKNSVA, WASTRES, QQYHRLPLS; each variant's own CDRs replace them letter for letter.
Numbers give log10(Kd / nM), so 0 is 1 nM and 3 is 1 µM. Smaller is tighter.
Averages over replicates are reported, and they cover detected replicates only.
A pair that was not seen in any replicate is written "nd"; this usually means weak binding, but a binder can also be missed.

The variant KSSQSVLYESRMKNSVA, WASTRES, QAYHRLPLS [Ctrl] gave 2.00 (1 of 6 replicates).
The variant HLQEQSFVGQKDKWSVA, NTECKYN, QQYAQLPLM [En_Gibbs] gave 1.02 (6 of 6 replicates).
The variant KFSPSVLYESRDKNSVA, NASTRES, QQYHRLPLS [GP_HC] gave -0.35 (6 of 6 replicates).
The variant KISQMVNYESTHVQAVA, QMSTREE, QQYFRLPLS [En_HC] gave 0.62 (6 of 6 replicates).
The variant KFMGSDEYQMQEQHNVA, QTEQKCK, QQYFRLPLT [En_Gibbs] gave 0.86 (6 of 6 replicates).
The variant KMPQSELYESRNKNSVA, EASTRES, QQYHRLPLS [GP_Gen] gave -0.34 (6 of 6 replicates).
The variant KLPQSVLYESRNKNSVA, QASTREV, QQYHRLPLS [GP_Gen] gave -0.25 (6 of 6 replicates).
The variant KVSQSFLYESRNKNQVA, GASTRES, QQYHRLPLS [GP_HC] gave -0.07 (6 of 6 replicates).
The variant FIDGNYYDKYQASNSIA, DEAHIQA, QQYDLLPLS [En_Gibbs] gave 2.44 (5 of 6 replicates).
The variant KLPQSYLYESRNKNSVA, NASYRES, QQYHRLPLS [GP_Gen] gave -0.44 (6 of 6 replicates).
The variant HLSQSVLYESRNKNSVA, NASTREM, QQYHRLPLS [GP_Gen] gave -0.25 (6 of 6 replicates).
The variant KLSYSELYEDRNKNSVA, NASTREQ, QQYHRLPLS [GP_Gibbs] gave 0.08 (6 of 6 replicates).
The variant KLSFLKGGESRNKNSVA, DAGTRES, QQYHRLPLS [GP_Gibbs] gave -0.26 (6 of 6 replicates).
The variant HITDLMYFGNEGEWNIA, DKNISVM, QQYFRLPLS [En_Gibbs] gave 0.82 (6 of 6 replicates).
The variant KLSGSMLYELRNLNSVA, HASQRMS, QQYHRLPLS [GP_Gibbs] gave 1.09 (6 of 6 replicates).
The variant KVYCGVDYEDRNKNQVA, HASQRES, QQYHRLPLS [GP_Gibbs] gave -0.02 (6 of 6 replicates).
The variant SLDMREEPYTALSGSVA, GSANRAI, QQYFRLPLS [En_Gibbs] gave -0.04 (6 of 6 replicates).
The variant KLQQMVEMESRNPNSVA, SASTREL, QQYHRLPLS [GP_Gibbs] gave 0.18 (6 of 6 replicates).
The variant KLSMSVLYESRNKNSVA, EASTRES, QQYHRLPLS [GP_Gen] gave -0.35 (6 of 6 replicates).
The variant KMSSSVLDESRNCNSIA, WASTRES, QQYHRLPLS [Ctrl] gave 1.18 (6 of 6 replicates).
The variant KSSQSVLYLSRNKNSVA, WASTRES, QQYHGLPLT [Ctrl] gave 1.22 (1 of 6 replicates).
The variant KLQQSWEYESRNKNNVA, EGSQREV, QQYHRLPLS [GP_Gibbs] gave -0.19 (6 of 6 replicates).
The variant KSSQSVLYNSRNKNSVA, WASTRES, QLYHRLPLS [Ctrl] gave nd (0 of 6 replicates).
The variant SLYENYQMGGLHTNAVA, DANQMMR, QHYNRLPLA [En_Gibbs] gave 0.18 (6 of 6 replicates).

Continued, with the values leading:

0.91 (6 of 6 replicates): KQSQSVGGMQRNKNSVA, EASTREM, QQYHRLPLS [GP_Gibbs].
-0.19 (6 of 6 replicates): KLPQSTLYESRNKNSVA, NASTREV, QQYHRLPLS [GP_Gen].
-0.15 (6 of 6 replicates): KVPQSVLYESRNKNSVA, QASTRES, QQYHRLPLS [GP_Gen].
-0.04 (6 of 6 replicates): KLPQSKLYESRNKNSVA, NASQRES, QQYHRLPLS [GP_Gen].
0.18 (6 of 6 replicates): KISFLTNQTFEHSNNVA, EMVTREK, QQYNRLPLS [En_Gen].
1.51 (6 of 6 replicates): KIGGVTNGISRNKNSVA, EQSTRES, QQYDRLPLS [En_HC].
0.58 (6 of 6 replicates): KTSQSKLYDSSNKNSVA, EASTRNS, QQYHRLPLS [Ctrl].
1.12 (6 of 6 replicates): TISQMQFIESKNRNNVA, EMTTREN, QDYDRLPLS [En_HC].
3.07 (1 of 6 replicates): MVSQLMLWGLHAKNSIA, EAVTRLN, QQYDRLPLF [En_Gen].
0.56 (6 of 6 replicates): KVSISYLMESRNKNSVA, EASTRES, QQYHRLPLS [GP_HC].
-0.34 (6 of 6 replicates): ALSQSMDMTSRNKNSVA, DLTTREN, QQYHRLPLS [En_HC].
0.10 (6 of 6 replicates): HMKDEPGLGPQTYSSVA, HASIREP, QQYYRLPLM [En_Gibbs].
0.65 (6 of 6 replicates): NFTQMVLTGSTLRNSVA, HASTREE, QQYHRLPLI [En_HC].
0.42 (6 of 6 replicates): KYSQSQLYEDRMVNSVA, NASQRMS, QQYHRLPLS [GP_Gibbs].
0.90 (4 of 6 replicates): KSSQSVKYESRNKNSVA, DASTRES, QQYHRLPLS [GP_HC].
0.65 (6 of 6 replicates): KLRQSTKYESRNQNSVA, NASTRES, QQYHRLPLS [GP_HC].
1.09 (5 of 6 replicates): KLSQSMEYESRNKNSVA, NASTREE, GQYHRLPLT [GP_Gibbs].
0.34 (6 of 6 replicates): KLPQSTMQESVSKNSVA, ELTTRGS, QQYHRLPLS [En_HC].
-0.23 (6 of 6 replicates): KHEEGVWYESRNKNSVA, NASTRES, QQYHRLPLS [GP_Gibbs].
1.47 (1 of 6 replicates): KITGTMRFEQKASNNIA, EVTQRSK, QQYYRLPLS [En_Gen].
1.62 (6 of 6 replicates): MVSQSVLYESRNKNSVA, WASTRES, QQYHRLPLS [Ctrl].
0.73 (6 of 6 replicates): KFSQSWLYESRNFWSVA, GASTRES, QQYHRLPLS [GP_HC].
-0.13 (6 of 6 replicates): KLLQSVLYESRNKNSVA, GASTRES, QQYHRLPLS [GP_Gen].
-0.18 (6 of 6 replicates): KLQQSVDYESRNKNSVA, NASTRES, QQYHRLPLS [GP_Gen].
1.85 (3 of 6 replicates): KSSQSNLEESRNHNSVA, WASTRES, QQYHRLPLS [Ctrl].

Top 3 of the variants detected in all replicates, tightest first:

CDR-L1	CDR-L2	CDR-L3	group	mean, log10 nM	replicates with signal
KLPQSYLYESRNKNSVA	NASYRES	QQYHRLPLS	GP_Gen	-0.44	6/6
KLSMSVLYESRNKNSVA	EASTRES	QQYHRLPLS	GP_Gen	-0.35	6/6
KFSPSVLYESRDKNSVA	NASTRES	QQYHRLPLS	GP_HC	-0.35	6/6

The authors' rule: three or more of the six replicates give a measured affinity, fewer mean a poor binder.
Nonspecific signal, from three strains lacking the peptide, appeared in 4% of pairings of all light chain designs, centred on 2.64 (5% of these signals below 1.59); values are not corrected for it.
Of ten entries with the parent sequence, four were seen in most replicates (averages 0.34 to 2.37), three in one and three in none, so single entries are noisy.
Values of this round are not directly comparable with the first-round values of the same sequences.